Here are results for 1 compound from PubChem BioAssay AID2284362 (EPA ToxCast).

The list shows a part of the results, in another mix than the full data. Results filed as inconclusive are left out. The source made the active and inactive calls. How the source made its calls: active means hit-call score of the fitted dose curve at least 0.9, where 1 is the maximum; inconclusive means response in the unintended direction; inactive means score below 0.9.

The nature of this test: CCTE_Mundy_HCI_iCellGABA_NOG_NeuriteCount: CCTE's Neurite Outgrowth Assay in iCellGABA cells for Neurite Count, Mundy Lab. The method, then: CCTE_Mundy_HCI_iCellGABA_NOG is a multiplexed, cell-based-readout assay that uses iCell GABANeurons from FUJIFILM Cellular Dynamics, Inc. (FCDI), human GABAergic enriched neurons derived from induced pluripotent stem (iPS) cells, with measurements taken at 50.33 hours after chemical dosing in a microplate: 96-well plate.CCTE_Mundy_HCI_iCellGABA_NOG_NeuriteCount is one of four components of the CCTE_Mundy_HCI_iCellGABA_NOG assay. It measures neurite outgrowth related to number of neurites using High Content Imaging of fluorescently labelled markers.Data from the assay component CCTE_Mundy_HCI_iCellGABA_NOG_NeuriteCount was analyzed at the endpoint CCTE_Mundy_HCI_iCellGABA_NOG_NeuriteCount in the positive analysis fitting direction relative to DMSO as the negative control and baseline of activity. Using a type of morphology reporter, loss-of-signal activity can be used to understand developmental effects.
Exposure starts 2 hours post-plating by adding 10 ul of the working solution to 90 ul of media in the wells for a 1/10 dilution. […] A Cellomics ArrayScan VTi HCS Reader is used for automated image acquisition and analysis of neurite outgrowth.
Turning to `CC(C)OP(=S)(OC(C)C)SCCNS(=O)(=O)c1ccccc1`, the AC50 (commonly the midpoint of the concentration-response curve, whichever way the signal moves) was active: 50 µM.
